Measurements from patent publication US10335470B2, “Immunogenic compositions comprising progastrin and uses thereof” (Board of Regents, The University of Texas System, priority 2006, dated 2019).

Molecular target: T1, CCK2R (Rattus norvegicus, UniProt P30553)
T1 construct: endogenous in cells; host or cells: AR42J cells
T1 sequence (P30553 1-452): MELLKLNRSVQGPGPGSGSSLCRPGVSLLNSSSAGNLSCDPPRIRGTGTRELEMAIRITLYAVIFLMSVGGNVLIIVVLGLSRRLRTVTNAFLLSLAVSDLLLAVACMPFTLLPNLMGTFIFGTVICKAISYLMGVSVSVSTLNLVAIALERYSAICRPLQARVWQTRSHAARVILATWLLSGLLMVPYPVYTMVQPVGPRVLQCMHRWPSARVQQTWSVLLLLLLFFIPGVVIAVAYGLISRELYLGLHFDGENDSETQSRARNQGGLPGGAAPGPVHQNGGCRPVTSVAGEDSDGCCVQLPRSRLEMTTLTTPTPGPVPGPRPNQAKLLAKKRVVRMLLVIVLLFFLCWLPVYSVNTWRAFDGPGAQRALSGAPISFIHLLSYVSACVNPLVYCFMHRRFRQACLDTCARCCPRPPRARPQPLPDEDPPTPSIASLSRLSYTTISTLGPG
Assay: Displacement of 125I-BH-CCK8 binding to AR42J cells
Description: FIGS. 8A-8C show binding of ^125I-rhPG and ^125I-BH-CCK8 to a pancreatic cancer cell line, AR42J and intestinal epithelial cells (IEC). Cells were incubated with the indicated radio labeled ligand in the presence or absence of increasing concentrations of either CCK8, G17 or rhPG. The relative binding affinity of the gastrin like peptides for the specific binding sites for rhPG (FIGS. 8A and B) (Annexin II) and CCK8 (FIG. 8C) to CCK2R was calculated. Data in each point represents the mean values of triplicate measurements from a single experiment and is representative of 2 similar experiments. The intra-experimental variation for each data point was <5-10%. […]
In order to define the RBA of various peptides for the PG binding sites on the cells, cells in suspension were incubated with 1.0 nM ^125I-rhPG in the presence or absence of increasing concentrations (0.1 nM-10.0 μM) of either the homologous or heterologous peptide. Non-specific binding was determined in the presence of 1000× excess of the non-labeled homologous peptide. […] Cell pellets were counted for ^125I in a gamma counter with ˜70% efficiency for ^125I. The RBA of gastrin-like peptides and/or competing peptides for binding the specific binding sites for rhPG were determined from a log-dose inhibition of specific binding of ^125I-rhPG by various peptides as described previously (Singh et al, 1995). […]

Substance	displacement of binding of 125I-BH-CCK8 to CCK2R
CCK: cholecystokinin (CCK-8), amidated peptide closely related to gastrin	completely displaced
G17: 17 amino acid C-terminally amidated gastrin peptide (QGPWLEEEEEAYGWMDF)	completely displaced
